Literature values in patent US20260126455A1, “Methods and Dosing Regimens for Preventing or Delaying Onset of Alzheimer's Disease and Other Forms of Dementia and Mild Cognitive Impairment” (priority 2020, published 2026).

Tested on: A7R-transfected SK-N-MC human neuroblastoma cells
Settings: 2 micromolar; cited from earlier work

## O=[As]c1ccccc1 (stereo not shown)
  Block of Abeta42 internalization and accumulation in transfected cells: blocked
